# Measured values taken from patent US11326138B2, “Cell culture device and methods of use thereof” (University of Kentucky Research Foundation, priority 2017, dated 2022).
# Assay: Solute diffusion from microfluidic channels into agarose hydrogel (time-lapse fluorescence)
# Assay type: physicochemical
# Conditions: solution pumped through channels at 25 μL/min; 1.5 wt % agarose
substance,measurement,value
FITC-dextran,diffusion from microchannels into adjacent hydrogel,did not penetrate the hydrogel
